PubChem BioAssay AID1466 (National Center for Advancing Translational Sciences (NCATS), 2008)
Some of the results follow. Results filed as inconclusive are left out. The source made the active and inactive calls. Calls follow the shape of the dose curve; as a rule, active = well fitted inhibition curve with a large enough effect; inconclusive = small, poorly fitted or top-dose-only effect, or effect the other way, or another doubt; inactive = no such curve, though single readings can be large or run the other way.

target: Lysosomal alpha-glucosidase (Homo sapiens) (UniProt P10253); experiment: qHTS Assay for Inhibitors of Human alpha-Glucosidase as a Potential Chaperone Treatment of Pompe Disease; conditions: purified human GAA, 4-MU-alpha-glucoside fluorescence; at 76.9 µM (top of the series) unless noted;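 also: plate controls were uninhibited enzyme wells for no effect and no-enzyme background for full effect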

Row | Compound | activity change, negative = inhibition
1 | Nc1cccc2ccc([As](=O)(O)O)cc12 | inactive: -7.92%
2 | CCN(N=Nc1nonc1N)c1nonc1N | inactive: -2.78%
3 | O=C(O)c1ccccc1[As](=O)(O)O | inactive: -1.45%
4 | CC(=O)Nc1ccc([As](=O)(O)O)cc1 | inactive: 4%
5 | CCOP(=O)(Nc1ccccc1)OCC | inactive: -1.63%
6 | Cc1cc(SC(NC(=O)c2ccc(F)cc2)C(Cl)(Cl)Cl)ncn1 (stereo not given) | inactive: 2.52%
7 | Oc1ccccc1CNc1ccccn1 | inactive: -4.93%
8 | Cc1c2non([O-])c-2c(C)[n+](=O)[n+]1[O-] | inactive: -2.49%
9 | O=C(NC(Sc1ccncn1)C(Cl)(Cl)Cl)c1ccccc1 (stereo not given) | inactive: -7.78%
10 | CC(C)CC(=O)NC(Sc1ccc(Cl)cc1)C(Cl)(Cl)Cl (stereo not given) | inactive: -1.12%
11 | Cc1ccc(N/C(=N/P(=O)(N2CCOCC2)N2CCOCC2)N2CCOCC2)cc1 | inactive: 6.11%
12 | NC(=O)c1cc([N+](=O)[O-])cc([N+](=O)[O-])c1N | inactive: -12.4%
13 | Clc1ccc(Cl)c(NC2=NCC(CBr)S2)c1 (stereo not given) | inactive: 3.64%
14 | CN1CCCC(OC(=O)C(c2ccccc2)c2ccccc2)C1 (stereo not given) | inactive: -9.81%
15 | COc1ccccc1OP(=O)(Nc1ccc(C)cn1)Oc1ccccc1OC | inactive: 0.0874%
16 | CCN(/C(=N/P(=O)(N1CCOCC1)N1CCOCC1)N1CCOCC1)c1ccc(OC)cc1 | inactive: 0.374%
17 | Nc1ccc([As](=O)(O)c2ccc(N)cc2)cc1 | inactive: -4.18%
18 | CC1CCN(C(=O)Oc2c(Cl)cc(Cl)c3cccnc23)CC1 | inactive: -5.55%
19 | CC(C)=N/N=C(\N)N[N+](=O)[O-] | inactive: 10.2%
20 | CN(C)C(=O)OCCc1n(C)cc[n+]1C | inactive: -1.4%
21 | Cc1ccc(NP(=O)(Oc2ccccc2)Oc2ccccc2)nc1 | inactive: -6.29%
22 | O=[N+]([O-])c1cc([N+](=O)[O-])c(CCNc2ccccc2)c([N+](=O)[O-])c1 | inactive: 1.74%
23 | CCc1nc2c(n1)c1c(non1O)c1c2no[n+]1[O-] | inactive: 1.01%

Row | Compound | activity change, negative = inhibition
24 | CC(=O)N1C2C3N(C(C)=O)C1C1N(C(C)=O)C(C(N1C(C)=O)N3C(C)=O)N2C(C)=O | inactive: 0.647%
25 | O=[N+]([O-])c1cccc2n[nH]nc12 | inactive: 2.1%
26 | O=[N+]([O-])c1ncn(CCn2ncnc2[N+](=O)[O-])n1 | inactive: 2.34%
27 | O=C(O)CNc1ccc([As](=O)(O)O)cc1 | inactive: -11%
28 | O=C(Nc1cc([As](=O)(O)O)ccc1O)c1ccccc1 | inactive: -4.65%
29 | CC(=O)NC(SC(=S)N(C)C)C(Cl)(Cl)Cl (stereo not given) | inactive: -6.61%
30 | O=C(OC1CN2CCC1CC2)c1cccc(Cl)c1 (stereo not given) | inactive: 5.76%
31 | C(Cc1nn[nH]n1)Cc1nn[nH]n1 | inactive: 2.9%
32 | O=P(Nc1ccccn1)(c1ccc(Br)cc1)c1ccc(Br)cc1 | inactive: -3.11%
33 | O=P(Nc1nc2ccccc2s1)(c1ccccc1)c1ccccc1 | inactive: -3.43%
34 | O=P(Nc1nccs1)(c1ccccc1)c1ccccc1 | inactive: 0.756%
35 | CC(C)C(=O)NC(Sc1ccccc1)C(Cl)(Cl)Cl (stereo not given) | inactive: 1.71%
36 | c1nnnn1CCn1cnnn1 | inactive: -2.56%
37 | CC(=O)Nc1ccc([As](=O)(O)O)c(O)c1 | inactive: -2.27%
38 | CC(=O)Nc1ccc(Oc2c([N+](=O)[O-])cc([N+](=O)[O-])cc2[N+](=O)[O-])cc1 | inactive: -5.34%
39 | O=P1(Nc2nc3ccc(Cl)cc3s2)COc2ccccc2O1 (stereo not given) | inactive: 0.265%
40 | CCOc1ccc(C2=NCC(CBr)S2)cc1 (stereo not given) | inactive: 2.68%
41 | CC(C)(C)C(=O)NC(Sc1ccccc1)C(Cl)(Cl)Cl (stereo not given) | inactive: 3.17%
42 | CCC(=O)N1C2C3N(C(=O)CC)C1C1N(C(=O)CC)C(C(N1C(=O)CC)N3C(=O)CC)N2C(=O)CC | inactive: 8.56%
43 | COC(=O)c1cc2c(s1)N=C(c1ccccc1)N(C)P2(=O)N1CCOCC1 (stereo not given) | inactive: 3.21%
44 | CC(=O)NC(SC(=S)N(CC(C)C)CC(C)C)C(Cl)(Cl)Cl (stereo not given) | inactive: 3.72%
45 | O=c1c2cc([N+](=O)[O-])ccc2[nH]c2c([N+](=O)[O-])cc([N+](=O)[O-])cc12 | inactive: 10.6%
